# Data reported in ChEMBL document CHEMBL1129342, “Structure-based design of novel HIV protease inhibitors: sulfonamide-containing 4-hydroxycoumarins and 4-hydroxy-2-pyrones as potent non-peptidic inhibitors” (J Med Chem, 1996).
# Molecular target: Human immunodeficiency virus type 1 protease (Human immunodeficiency virus 1, UniProt Q72874)
# Test: Binding affinity against HIV-1 protease.
row,SMILES,Ki [pM]
1,Cn1cnc(S(=O)(=O)Nc2cccc(C(c3c(O)cc(C(CC4CC4)CC4CC4)oc3=O)C3CC3)c2)c1 (racemic),1000
2,"Cn1cnc(S(=O)(=O)Nc2cccc(C(c3c(O)cc(C(CC4CC4)CC4CC4)oc3=O)C3CC3)c2)c1 (single isomer, unassigned; enantiomer 1)",740
3,"Cn1cnc(S(=O)(=O)Nc2cccc(C(c3c(O)cc(C(CC4CC4)CC4CC4)oc3=O)C3CC3)c2)c1 (single isomer, unassigned; enantiomer 2)",840
4,Cn1cnc(S(=O)(=O)Nc2cccc(C(c3c(O)cc(C(CC4CC4)CC4CC4)oc3=O)C3CC3)c2)c1 (stereo in doubt),1000
